The values that follow come from patent publication US20090004112A1, “METHODS FOR THE TREATMENT OF NEURODEGENERATIVE DISEASES USING NMDA RECEPTOR GLYCINE SITE ANTAGONISTS” (THE TRUSTEES OF COLUMBIA UNIVERSITY IN THE CITY OF NEW YORK, priority 2006, published 2009).

Read-outs that look alike come from different tables or passages of the source.

This assay has as its system LRRK2 G2019S mutant expressing neurons. The settings on record: for block of LRRK2 toxicity: concentration not given; for suppression of the neurite length phenotype (neurite toxicity) of the G2019S LRRK2 allele: 10 μM, ratio of G2019S longest process length over wild-type longest process length, as percentage of vehicle (0.1% DMSO), primary rat cortical cultures.

Consider `O=C1CC(c2ccccc2)Oc2ccccc21` (centres unmarked) [flavanone], for which the “block of LRRK2 toxicity” value was “effectively block LRRK2 toxicity”.
As for `Nc1ccccc1C(=O)CC(N)C(=O)O` (centres unmarked) [kynurenine], the “block of LRRK2 toxicity” value is “effectively block LRRK2 toxicity”.
`O=c1c(-c2cccc(Oc3ccccc3)c2)c(O)[nH]c2cc(Cl)ccc12` [L-701,324, 7-chloro-2-hydroxy-3-[3-(phenoxy)phenyl]-1H-quinolin-4-one]: the “block of LRRK2 toxicity” value is “effectively block LRRK2 toxicity”.
In the case of `NC1(C(=O)O)CCC1` [1-aminocyclobutane carboxylic acid], the “suppression of the neurite length phenotype (neurite toxicity) of the G2019S LRRK2 allele” value is listed as “significantly suppress” and the “block of LRRK2 toxicity” value is “effectively block LRRK2 toxicity”. Also, the “suppression of the neurite length phenotype (neurite toxicity) of the G2019S LRRK2 allele” value (listed as ACBC) is “significantly suppressed”.
In the case of `C[C@]12N[C@H](Cc3ccccc31)c1ccccc12` [MK-801], the “block of LRRK2 toxicity” value is on record as “effectively block LRRK2 toxicity”.
The same measure, in the same setting: with `NC(CCCP(=O)(O)O)C(=O)O` (centres unmarked) [AP-5, 2-amino-5-phosphonopentanoate] the entry was “effectively block LRRK2 toxicity”.
